Broadly, the IC50 is the concentration that gives 50% inhibition.

Amino acid sequences for entries named in this document (tags omitted). A change or cut given only in a name is not applied to a line headed by its entry.
UniProt P48775: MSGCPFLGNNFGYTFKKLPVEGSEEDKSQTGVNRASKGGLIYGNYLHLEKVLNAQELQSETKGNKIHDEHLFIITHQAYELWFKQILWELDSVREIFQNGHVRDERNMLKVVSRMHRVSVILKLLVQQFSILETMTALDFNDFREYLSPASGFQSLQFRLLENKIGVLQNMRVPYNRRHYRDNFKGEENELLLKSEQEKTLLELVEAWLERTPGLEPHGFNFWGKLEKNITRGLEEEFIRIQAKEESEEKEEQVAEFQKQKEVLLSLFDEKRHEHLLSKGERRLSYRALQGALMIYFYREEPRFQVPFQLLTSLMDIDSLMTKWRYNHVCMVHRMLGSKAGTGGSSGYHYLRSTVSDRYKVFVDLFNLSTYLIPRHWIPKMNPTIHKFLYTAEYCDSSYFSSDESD

Assay [1] has as its target T1, TDO (Homo sapiens (Human), UniProt P48775). Description: A172 (TDO) cell based assay for detection of kynurenine. The note with it: pIC50 A172 (TDO) cell based assay. As to the method:
(§1) Exemplary compounds disclosed herein were prepared, and tested to determine their effect as IDO and/or TDO inhibitors. Two different assays were employed: 1. a cell-based assay for detecting the effect of test compounds on kynurenine production in two different cancer cell types. This assay utilized cancer cells which expressed either TDO or IDO and as such was used as a means of testing compound activity at these two enzymes in a cell-based context. 2. a TDO and IDO biochemical coupled assay which utilized recombinantly produced and purified TDO and IDO enzymes in combination with the enzyme formamidase. This coupled enzyme system allowed conversion of N-formylkynurenine produced by TDO or IDO activity to kynurenine which was then quantified by fluorescence following addition of Erhlich's Reagent. The protocols for these are set out below.
A172 and SKOV3 Cell Based Assays for Detection of Kynurenine Produced by TDO and/or IDO
A172 (human glioblastoma) and SKOV3 (human ovarian adenocarcinoma) cells were seeded in a 96 well plate at 30,000 or 40,000 cells per well respectively in phenol red-free RPMI supplemented with 10% FCS, 2 mM L-glutamine and 500 μM L-tryptophan. IDO expression was induced in the SKOV3 cells by the addition of 500 ng/ml IFN-γ. Cells were incubated at 37° C. with or without the addition of test compound. […]

Assay [2] addresses T1, TDO. Description: hTDO biochemical coupled assay. The note with it: 330 μM L-tryptophan. As to the method: as §1
TDO and IDO Biochemical Coupled Assay
Recombinant human IDO or TDO was incubated in 50 mM KPO4 (pH 7.0), 0.5 mM EGTA, 0.5 mM EDTA, 0.05% Triton™ X100, 20 mM ascorbate, 10 μM methylene blue, 500 U/ml catalase, 50 μg/ml KynB (kynurenine formamidase). […] After incubation for 17 minutes at room temperature the reactions were stopped by the addition of Erhlich's reagent and incubated at room temperature for 5 minutes before the fluorescence was read.

For the compound `CC1(C)CN(c2cc(C(F)(F)F)cc3cncn23)CCC12NC(=O)NC2=O` (centres unmarked) [Example 5, 6,6-Dimethyl-8-(7-(trifluoromethyl)imidazo[1,5-a]pyridin-5-yl)-1,3,8-triazaspiro[4.5]decane-2,4-dione], on TDO [1], the IC50 is > 10 µM. The “pIC50 hTDO biochemical coupled assay” value at TDO [2] is listed as 5.52.

The values above are taken from patent publication US11096930B2, “Substituted imidazopyridine compounds as inhibitors of indoleamine 2,3-dioxygenase and/or tryptophan-2,3-dioxygenase” (IOMet Pharma Ltd., priority 2016, dated 2021).
